From PubChem BioAssay AID493232 (The Scripps Research Institute Molecular Screening Center, 2011) come the findings set out here.

Molecules are shown by their SMILES. The list shows a part of the results, in another mix than the full data. Activity calls are given as the source filed them. Rule as the data show it: active = inhibition above about 17%; inactive = the rest.

The assay can be described thus: signal inhibition in parental CHO-K1 cells, counter-screen for OX1R antagonist project, cell-based, HTRF (AID 493232).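 Also: 0% = agonist challenge with vehicle and 100% = vehicle alone without agonist.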 Conditions: HTRF counterscreen, at 6.6 µM, hits give high values. A general note: Counterscreens check selectivity or assay interference.
Take `O=[N+]([O-])c1cc([N+](=O)[O-])c(Nc2ccccn2)c([N+](=O)[O-])c1`: the inhibition is active: 61.3%.
As to `O=[N+]([O-])c1cc([N+](=O)[O-])c(NCC2CCS(=O)(=O)C2)c([N+](=O)[O-])c1` (stereo not drawn), the inhibition was active: 104%.
As for `O=[N+]([O-])c1cc([N+](=O)[O-])c(Nc2cccnc2)c([N+](=O)[O-])c1`, the inhibition is active: 62.2%.

As usually defined, the inhibition is the drop in the measured response relative to a control, in per cent.
